From US5602100A, “Dermorphin analogs having pharmacological activity” (priority 1988, dated 1997)

Sequences of proteins named here, by UniProt entry; tags and fusion partners are left off. A change or cut given only in a name is not applied to a line headed by its entry.
UniProt P33533, whole entry: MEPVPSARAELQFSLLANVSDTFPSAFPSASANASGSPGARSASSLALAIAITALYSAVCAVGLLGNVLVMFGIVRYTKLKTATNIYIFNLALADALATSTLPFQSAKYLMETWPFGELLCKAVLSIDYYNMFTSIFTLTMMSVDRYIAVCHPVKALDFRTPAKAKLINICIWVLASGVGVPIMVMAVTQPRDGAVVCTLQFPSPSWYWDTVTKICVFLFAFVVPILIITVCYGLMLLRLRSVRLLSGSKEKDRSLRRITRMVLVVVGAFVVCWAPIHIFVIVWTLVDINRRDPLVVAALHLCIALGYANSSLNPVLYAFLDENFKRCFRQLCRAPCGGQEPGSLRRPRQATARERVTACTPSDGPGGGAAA

What was measured:
mouse vas deferens (MVD) = type: cell-based
δ-opioid receptor = molecular target: T1, δ-opioid receptor (Rattus norvegicus, UniProt P33533); type: binding; conditions: read-out: [3H]HSLET Ki^δ
T1 construct: displacement of the radioligands from the rat brain membrane preparations; from tissue; host or cells: rat brain membrane preparations

guinea pig ileum (GPI) = type: cell-based

**Q.** “H-Tyr-D-Ala-Gly-Phe(NMe)-Gly-ol [DAGO, reference compound]” was tested. Which MVD relative potency (mouse vas deferens (MVD)) did it give?
**A.** The MVD relative potency was 0.0120 ± 0.0034.

**Q.** What about the Ki (δ-opioid receptor) of the same substance?
**A.** The Ki was 1.28 µM.

**Q.** What about the GPI relative potency (guinea pig ileum (GPI)) of the same substance?
**A.** The GPI relative potency was 8.69 ± 1.14.
